# Assay results reported in ChEMBL document CHEMBL4840326, “Discovery of an M-Substituted N-Cyclopropylmethyl-7α-phenyl-6,14-endoethanotetrahydronorthebaine as a Selective, Potent, and Orally Active κ-Opioid Receptor Agonist with an Improved Central Nervous System Safety Profile” (2021).
# The chains behind the UniProt entries cited, without tags or fusion partners.
# UniProt P41145, whole entry: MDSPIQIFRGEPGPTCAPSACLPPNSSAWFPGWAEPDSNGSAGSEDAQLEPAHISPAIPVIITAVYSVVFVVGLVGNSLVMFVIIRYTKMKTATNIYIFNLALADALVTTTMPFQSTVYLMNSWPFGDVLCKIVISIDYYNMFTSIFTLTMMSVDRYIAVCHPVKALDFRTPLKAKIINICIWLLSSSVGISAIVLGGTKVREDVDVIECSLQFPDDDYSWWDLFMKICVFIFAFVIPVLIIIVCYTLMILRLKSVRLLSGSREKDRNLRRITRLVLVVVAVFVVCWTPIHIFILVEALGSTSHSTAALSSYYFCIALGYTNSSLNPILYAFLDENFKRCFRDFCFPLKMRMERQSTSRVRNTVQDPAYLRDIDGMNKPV
# UniProt P33535, whole entry: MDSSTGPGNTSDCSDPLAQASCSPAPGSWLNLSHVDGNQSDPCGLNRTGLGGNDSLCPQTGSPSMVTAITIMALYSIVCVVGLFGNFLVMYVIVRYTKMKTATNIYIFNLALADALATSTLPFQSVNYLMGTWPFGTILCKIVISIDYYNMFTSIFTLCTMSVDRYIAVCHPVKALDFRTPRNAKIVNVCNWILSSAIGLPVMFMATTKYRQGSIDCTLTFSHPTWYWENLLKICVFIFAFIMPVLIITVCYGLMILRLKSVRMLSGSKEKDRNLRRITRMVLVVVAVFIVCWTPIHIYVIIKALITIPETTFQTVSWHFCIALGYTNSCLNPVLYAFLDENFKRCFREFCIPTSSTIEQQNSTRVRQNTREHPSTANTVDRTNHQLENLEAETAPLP
# UniProt P33533, whole entry: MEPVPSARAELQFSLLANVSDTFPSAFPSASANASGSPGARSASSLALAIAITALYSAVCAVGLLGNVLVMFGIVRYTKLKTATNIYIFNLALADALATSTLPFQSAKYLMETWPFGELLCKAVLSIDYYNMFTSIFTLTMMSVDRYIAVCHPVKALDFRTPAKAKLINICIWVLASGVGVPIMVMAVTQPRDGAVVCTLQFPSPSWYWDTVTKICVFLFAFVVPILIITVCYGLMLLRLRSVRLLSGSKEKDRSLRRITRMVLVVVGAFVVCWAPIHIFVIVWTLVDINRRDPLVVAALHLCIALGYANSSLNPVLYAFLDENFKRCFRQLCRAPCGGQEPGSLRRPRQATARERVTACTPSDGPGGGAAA
# Legend:
# [1] = biological target: Kappa-type opioid receptor (Homo sapiens, UniProt P41145); assay: Displacement of [3H]U69,593 from human kappa opioid receptor expressed in CHO cell membrane measured after 30 mins by liquid scintillation counting method
# [2] = biological target: Mu-type opioid receptor (Rattus norvegicus, UniProt P33535); assay: Displacement of [3H]DAMGO from rat mu opioid receptor expressed in CHO cell membrane measured after 30 mins by liquid scintillation counting method
# [3] = biological target: Delta-type opioid receptor (Rattus norvegicus, UniProt P33533); assay: Displacement of [3H]DPDPE from rat delta opioid receptor expressed in CHO cell membrane measured after 30 mins by liquid scintillation counting method
Compound,Ki [1],Ki [2],Ki [3]
COc1ccc(CNc2cccc([C@H]3C[C@@]45CC[C@]3(OC)[C@@H]3Oc6c(O)ccc7c6[C@@]34CCN(CC3CC3)[C@@H]5C7)c2)cc1,0.016 nM,0.294 nM,0.072 nM
COc1ccc2c3c1O[C@H]1[C@@]4(OC)CC[C@@]5(C[C@@H]4c4cccc(NCc6cccc(C)c6)c4)[C@@H](C2)N(CC2CC2)CC[C@]315,56.2 nM,24.8 nM,590 nM
COc1ccc2c3c1O[C@H]1[C@@]4(OC)CC[C@@]5(C[C@@H]4c4cccc(NCc6ccc(C)cc6)c4)[C@@H](C2)N(CC2CC2)CC[C@]315,45.6 nM,20.4 nM,2750 nM
